The assay in a line: Selectivity ratio of IC50 for ovine COX1 to IC50 for recombinant human COX2.

This note sets out measurements from ChEMBL document CHEMBL2016541, “Synthesis and biological evaluation of isoxazolo[4,5-d]pyridazin-4-(5H)-one analogues as potent anti-inflammatory agents” (Bioorg Med Chem, 2012).

As to `CCn1c(Cn2nc(Cc3ccc([N+](=O)[O-])cc3)c3onc(C)c3c2=O)n[nH]c1=S`, the Ratio IC50 is over 10.
The figure for `CCn1c(Cn2nc(Cc3ccc(OC)cc3)c3onc(C)c3c2=O)n[nH]c1=S` is 9.15.
